The chains behind the UniProt entries cited, without tags or fusion partners. Where a name states a change or a piece, a line headed by the entry shows the natural chain unless it says otherwise.
UniProt P48146: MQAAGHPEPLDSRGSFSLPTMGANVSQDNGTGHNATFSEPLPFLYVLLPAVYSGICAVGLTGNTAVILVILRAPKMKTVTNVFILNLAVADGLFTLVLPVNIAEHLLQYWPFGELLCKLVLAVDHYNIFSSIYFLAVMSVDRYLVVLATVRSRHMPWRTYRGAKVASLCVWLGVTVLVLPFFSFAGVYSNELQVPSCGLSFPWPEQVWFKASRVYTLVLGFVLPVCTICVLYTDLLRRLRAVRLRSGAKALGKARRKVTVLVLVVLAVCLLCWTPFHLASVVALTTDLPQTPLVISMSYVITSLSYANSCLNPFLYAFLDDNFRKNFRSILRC

According to US7193033B2, “Peptide having appetite stimulating activity” (Takeda Pharmaceutical Company Limited, priority 2001, dated 2007):

Legend:
GPR8 [1] = biological target: T1, GPR8 (Homo sapiens, UniProt P48146); assay: Intracellular cAMP production suppressing activity in GPR8-expressed CHO cells (forskolin-stimulated); assay type: cell-based; conditions: forskolin-containing reaction buffer
T1 construct: expressed in transfected cells
Method: The CHL/GPR8 cells produced in EXAMPLE 4 and mock CHO cells were inoculated on a 24-well plate in 5×10^4 cells/well, followed by cultivation for 48 hours. The cells were washed with Hanks' buffer (pH 7.4) containing 0.2 mM 3-isobutyl-methylxanthine, 0.05% BSA and 20 mM HEPES (hereinafter Hanks' buffer (pH 7.4) containing 0.2 mM 3-isobutyl-methylxanthine, 0.05% BSA and 20 mM HEPES is referred to as a reaction buffer). Thereafter, 0.5 ml of the reaction buffer was added to the system, which was kept warm in an incubator for 30 minutes. After the reaction buffer was removed, 0.25 ml of a fresh reaction buffer was added to the cells. Then, 0.25 ml of the reaction buffer containing a sample fluid and 2 μM forskolin was added to the cells followed by reacting at 37° C. for 24 minutes. By adding 100 μl of 20% perchloric acid, the reaction was terminated. The reaction mixture was then allowed to stand on ice for an hour to extract intracellular cAMP. The amount of cAMP in the extract was measured using cAMP EIA kit (Amersham Pharmacia Biotech).
hGPR8L (1–23), which was synthesized in EXAMPLE 12, was brought in contact with the GPR8-expressed CHO cells in various concentrations according to the procedures described in EXAMPLE 5, to assay the intracellular cAMP production suppressing activity. […]

GPR8 [2] = biological target: T1, GPR8; assay: GTPγ S binding promoting activity on GPR8-expressed CHO cell membrane fraction; assay type: biochemical; conditions: various concentrations
Method: The [^35S]-guanosine 5′-(γ-thio)triphosphate binding promoting activity on a GPR8-expressed CHO cell membrane fraction was assayed by the following procedures. First, preparation of the membrane fraction is described. To 1×10^8 of CHO/GPR8 cells was added 10 ml of a homogenate buffer (10 mM NaHCO3, 5 mM EDTA, 0.5 mM PMSF, 1 μg/ml pepstatin, 4 μg/ml E64, 20 μg/ml leupeptin). The mixture was homogenized by using Polytron (12,000 rpm, 1 min.). The cell homogenate was subjected to centrifugation (1,000 g, 15 mins.) to obtain the supernatant. Next, the supernatant was subjected to ultracentrifugation (Beckman type 30 rotor, 30,000 rpm, 1 hour). The resulting precipitate was used as GPR8-expressed CHO cell membrane fraction.
The GTPγ S binding activity was assayed as follows. The GPR8-expressed CHO cell membrane fraction was diluted with a membrane dilution buffer (50 mM Tris-hydrochloride buffer (pH 7.4), 5 mM MgCl2, 150 mM NaCl, 1 μM GDP) to prepare a cell membrane fraction solution for assay having a protein level of […]. To 200 μl of the cell membrane fraction solution for assay were added 2 μl of 51.5 nM [^35S]-guanosine 5′-(γ-thio)triphosphate (NEN Co.) and a sample fluid. […] After washing twice with 1.5 ml of a wash buffer (50 mM Tris-hydrochloride buffer (pH 7.4), 5 mM MgCl2, 1 mM EDTA, 0.1% BSA), radioactivity of the filter was measured with a liquid scintillation counter. […]

blood prolactin level = assay: Prolactin release promoting activity after intracerebroventricular injection in rats; assay type: in vivo, rat; conditions: Wistar male rats, intracerebroventricular (third ventricle) injection, plasma radioimmunoassay 5-60 min
Description: Wistar male rats (9 weeks old) under pentobarbital anesthesia were inserted with a guide cannula (AG-12) targeted at the third ventricle (AP: −7.1, L: 0.0, H: 2.0 mm). Animals were allowed at least a week of recovery postoperatively before being used in the experiments. During the recovery period, animals were subjected to handling every day to minimize a stress caused by intracerebroventricular injection.
On the day before the experiments, rats under pentobarbital anesthesia were inserted with a cannula into the right jugular vein for blood collection. The test was performed between 9:00 and 12:00. Rats were inserted with a microinjection cannula under unanesthesia and nonrestraint, and were given a PBS solution of the human GPR8 ligand peptide (SEQ ID NO :16) (n=9) obtained in EXAMPLE 12 or PBS alone in a dose of 5 μl/min for 2 minutes. The microinjection cannula was removed 1 minute after completion of the injection and animals were allowed to move freely. Blood was collected by 300 μl each prior to the peptide injection and 5, 10, 20, 30 and 60 minutes after the start of injection. In order to keep the body water content constant, the equal volume of saline was given through the jugular vein after blood collection. […]

| Compound | Intracellular cAMP production suppressing activity (in words) (GPR8 [1]) | GTPγ S binding promoting activity (in words) (GPR8 [2]) | Blood prolactin level (in words) (blood prolactin level) |
| --- | --- | --- | --- |
| CSCC[C@H](NC(=O)[C@H](CC(C)C)NC(=O)[C@H](CC(C)C)NC(=O)CNC(=O)[C@H](C)NC(=O)[C@H](C)NC(=O)[C@H](CCCNC(=N)N)NC(=O)CNC(=O)[C@@H](NC(=O)[C@@H](NC(=O)[C@H](Cc1c[nH]cn1)NC(=O)[C@H](Cc1ccc(O)cc1)NC(=O)[C@H](CCCNC(=N)N)NC(=O)[C@@H]1CCCN1C(=O)[C@H](CO)NC(=O)[C@H](C)NC(=O)[C@@H](NC(=O)[C@H](Cc1c[nH]cn1)NC(=O)[C@H](CCCCN)NC(=O)[C@H](Cc1ccc(O)cc1)NC(=O)[C@@H](N)Cc1c[nH]c2ccccc12)C(C)C)[C@@H](C)O)C(C)C)C(=O)NCC(=O)N[C@@H](CC(C)C)C(=O)N[C@@H](CCCNC(=N)N)C(=O)N[C@@H](CCCNC(=N)N)C(=O)N[C@@H](CO)C(=O)N1CCC[C@H]1C(=O)N[C@@H](Cc1ccc(O)cc1)C(=O)N[C@@H](CC(C)C)C(=O)N[C@@H](Cc1c[nH]c2ccccc12)C(=O)O [hGPR8L(1–30)] | dose-dependently suppressed the intracellular cAMP production |  |  |
| CSCC[C@H](NC(=O)[C@H](CC(C)C)NC(=O)[C@H](CC(C)C)NC(=O)CNC(=O)[C@H](C)NC(=O)[C@H](C)NC(=O)[C@H](CCCNC(=N)N)NC(=O)CNC(=O)[C@@H](NC(=O)[C@@H](NC(=O)[C@H](Cc1c[nH]cn1)NC(=O)[C@H](Cc1ccc(O)cc1)NC(=O)[C@H](CCCNC(=N)N)NC(=O)[C@@H]1CCCN1C(=O)[C@H](CO)NC(=O)[C@H](C)NC(=O)[C@@H](NC(=O)[C@H](Cc1c[nH]cn1)NC(=O)[C@H](CCCCN)NC(=O)[C@H](Cc1ccc(O)cc1)NC(=O)[C@@H](N)Cc1c[nH]c2ccccc12)C(C)C)[C@@H](C)O)C(C)C)C(=O)NCC(=O)N[C@@H](CC(C)C)C(=O)O [hGPR8L(1–23)] | dose-dependently suppressed the intracellular cAMP production | dose-dependently promoted the GTPγ S binding | increased the blood prolactin level |
